## Apparent affinities of Ab-14 variants for a coronavirus HR2 peptide

Target peptide (SARS-CoV-2 spike, HR2 region): PDVDLGDISGINAS

Each scFv is VH, a 15-residue (Gly4Ser)3 linker, VL, as in the parent Ab-14, and differs from it in the CDRs of the heavy chain only.
VH: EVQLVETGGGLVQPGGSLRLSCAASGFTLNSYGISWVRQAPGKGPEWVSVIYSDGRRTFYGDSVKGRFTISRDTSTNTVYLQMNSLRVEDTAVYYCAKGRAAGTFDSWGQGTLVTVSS
VL: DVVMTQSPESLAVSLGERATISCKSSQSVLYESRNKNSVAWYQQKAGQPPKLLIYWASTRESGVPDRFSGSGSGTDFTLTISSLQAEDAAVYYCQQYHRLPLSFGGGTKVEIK

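Phage display of a naive human antibody library on the peptide gave the parent. Variants in AAYL49 differ from the parent at up to three CDR positions; double and triple changes were sampled at random. The assay is AlphaSeq: two haploid yeast populations carry antibody and antigen on their surface. Mating (16 h, 30 °C) was followed by selection of diploids and sequencing of their barcodes. Each replicate has its own calibration line, from reference interactions of the BCL2 family. There are three technical replicates.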

Variants are written as CDR1, CDR2 and CDR3 of the heavy chain (limits as in the source). Parent: GFTLNSYGIS, VIYSDGRRTFYGDSVK, GRAAGTFDS.
The read-out is the apparent dissociation constant on a log10 scale (nM): the lower, the stronger.
Averages over replicates are reported, and they cover detected replicates only.
A pair that was not seen in that replicate is written "n.d."; this usually means weak binding, but a binder can also be missed.
Three control strains display no target. For library AAYL49, 15% of the pairings with them gave a signal, with a median of 4.06 and one signal in twenty below 2.83, so weak values seen in few replicates may be background. Also given: how often the same scFv was detected with the empty control strains, with their mean in brackets.

| # | CDR-H1 | CDR-H2 | CDR-H3 | log10 Kd, replicates | log10 Kd (nM), mean | signal with controls |
|---|---|---|---|---|---|---|
| 1 | GFTLYSYGIS | VIYSIGRRTFYGDSVY | GRAAGTFDS | n.d. n.d. n.d. | n.d. | 0 of 9 |
| 2 | GFTLNSYGIS | VIYSDGRRHFYVDSVK | GRAAGTFDS | 0.93 1.06 1.22 | 1.07 | 2 of 9 (3.91) |
| 3 | GFTLNSYGIS | VIYSDKRRTQYGDFVK | GRAAGTFDS | 5.35 4.38 n.d. | 4.87 | 2 of 9 (3.68) |
| 4 | GFTLNSYGIS | VIYSDGRCTFYGSSVK | GRAGGTFDS | n.d. n.d. n.d. | n.d. | 3 of 9 (3.96) |
| 5 | GFTLFSYGIS | VPYSDGGRTFYGDSVK | GRAAGTFDS | 3.38 n.d. n.d. | 3.38 | 0 of 9 |
| 6 | GFTLNSYGIS | WIYSDGRCTFYGDSVK | IRAAGTFDS | n.d. n.d. n.d. | n.d. | 1 of 9 (3.20) |
| 7 | GFTLNSYGIS | VIYSDGRRTFYGFSVK | GRAAGTHDS | n.d. 3.57 6.02 | 4.79 | 5 of 9 (4.46) |
| 8 | GFTLNSYGID | VIYSDGRRTFYGDSVK | GRAAGSFDP | n.d. n.d. n.d. | n.d. | 0 of 9 |
| 9 | GFTLNGYGID | VIYSDGMRTFYGDSVK | GRAAGTFDS | n.d. n.d. n.d. | n.d. | 2 of 9 (3.72) |
| 10 | GFTLNSYGIS | VGYSDGRRTFYGDSVF | GRAKGTFDS | 4.39 n.d. 4.36 | 4.37 | 3 of 9 (4.36) |
| 11 | GQTLNSYGIS | VIYSDGRYTFYGDSVK | GRMAGTFDS | n.d. n.d. 3.62 | 3.62 | 1 of 9 (4.47) |
| 12 | GFTLNSYGIS | VIYSDERRKFYGDSYK | GRAAGTFDS | n.d. n.d. n.d. | n.d. | 1 of 9 (2.18) |
| 13 | GFTLNSYGVS | VIYSDGMRTFYGISVK | GRAAGTFDS | n.d. n.d. n.d. | n.d. | 0 of 9 |
| 14 | GFTLNSYGIS | VPYRDGRRTFYGDKVK | GRAAGTFDS | n.d. n.d. n.d. | n.d. | 2 of 9 (3.90) |
| 15 | GFTLNSYGIS | VIYSDGRRTWYGDSVK | GRAAVTFDS | 0.53 0.20 0.50 | 0.41 | 0 of 9 |
| 16 | GFTLNKYNIS | VIYSDGRRTFYGDSVK | GRAAKTFDS | n.d. n.d. n.d. | n.d. | 2 of 9 (4.20) |
| 17 | GFTLNSYGIS | VDYSDGRRLFYGDSVK | GRAAGTFDF | 2.84 2.38 2.97 | 2.73 | 1 of 9 (4.93) |
| 18 | GFTLESYGIS | VIYSDGRRTFYYDSVK | GRAAGHFDS | n.d. n.d. n.d. | n.d. | 2 of 9 (3.84) |
| 19 | GFTLNSYGIS | VIFSDERRTFYGDSKK | GRAAGTFDS | n.d. n.d. n.d. | n.d. | 0 of 9 |
| 20 | GFTLNSYGIS | VIWSDGERTFYGDSVK | IRAAGTFDS | n.d. n.d. n.d. | n.d. | 0 of 9 |
| 21 | GFTTNSYGIS | VIYSDGRRTFYGDSVQ | GRAAGTADS | 3.71 4.32 n.d. | 4.01 | 2 of 9 (3.94) |
| 22 | AFTLNSYGIS | VIYSDGRRTFYLDSVK | GRAAGTFVS | 1.31 1.89 1.69 | 1.63 | 2 of 9 (3.79) |
| 23 | GFTLNSIGIS | VIYSDGCRTFYLDSVK | GRAAGTFDS | 4.50 n.d. 4.07 | 4.28 | 6 of 9 (4.08) |
| 24 | GRTLNSYGIS | LIYSDGRRTFYGDSVK | DRAAGTFDS | 4.04 n.d. n.d. | 4.04 | 0 of 9 |
| 25 | GFTLNSYGIS | GIYSDGRRTFYGDSVK | GRAACTFIS | n.d. 4.68 n.d. | 4.68 | 2 of 9 (3.73) |
| 26 | GFTLNSYGIS | VIYLDGRRTAYGDSVK | GRGAGTFDS | n.d. 4.24 4.24 | 4.24 | 8 of 9 (4.68) |
| 27 | GFTLNLYGCS | VIYSDGRRTFYGDRVK | GRAAGTFDS | 5.47 n.d. n.d. | 5.47 | 2 of 9 (4.07) |
| 28 | GFTSNSYGIS | VIYSDGRRTFYGDSEK | GRAAGPFDS | n.d. n.d. n.d. | n.d. | 0 of 9 |
| 29 | GFTLNSYGIS | VIYSDGRPTNYGDSVK | GRAAQTFDS | 4.58 n.d. n.d. | 4.58 | 0 of 9 |
| 30 | KFTLNSYGIS | VIYSDGRRTFYGDSVL | GRGAGTFDS | 1.58 1.65 1.47 | 1.57 | 2 of 9 (3.20) |
| 31 | GNTLNSYEIS | VIYSDGRRTFIGDSVK | GRAAGTFDS | n.d. n.d. 3.69 | 3.69 | 3 of 9 (4.50) |
| 32 | GFTLNSYGIS | VIPSDGQRTFYGWSVK | GRAAGTFDS | 5.42 n.d. n.d. | 5.42 | 1 of 9 (3.29) |
| 33 | GFTLNSYFIS | VIYSDGRYMFYGDSVK | GRAAGTFDS | n.d. 2.61 n.d. | 2.61 | 0 of 9 |
| 34 | GFTLFSYGIS | VIYSDGRRTFYGDSVK | IRAAPTFDS | n.d. n.d. n.d. | n.d. | 1 of 9 (3.20) |
| 35 | GFTLNSYGIS | VGPSDGRRTFDGDSVK | GRAAGTFDS | n.d. n.d. n.d. | n.d. | 0 of 9 |
| 36 | GFYLNSYGIS | VIYSQGRFTFYGDSVK | GRAAGTFDS | n.d. n.d. n.d. | n.d. | 0 of 9 |
| 37 | GSTLISYGIS | VIYSDGRRGFYGDSVK | GRAAGTFDS | n.d. n.d. n.d. | n.d. | 0 of 9 |
| 38 | GFTLNSYGVS | VIYSDGRRTFYGDSDK | GRAAGHFDS | 4.24 n.d. n.d. | 4.24 | 4 of 9 (3.96) |
| 39 | GFTLNSYGIE | VIYSDGYRTFYGDSVK | GRAAGTDDS | n.d. n.d. n.d. | n.d. | 0 of 9 |
| 40 | CFTLNSYGIS | VIYSDGRRTAYGFSVK | GRAAGTFDS | 4.41 5.63 n.d. | 5.02 | 4 of 9 (4.53) |
| 41 | GFTLNSYGIS | VIYSDGPSTFYGDSVK | GRAAFTFDS | n.d. n.d. 5.34 | 5.34 | 5 of 9 (3.99) |
| 42 | AFTLNSYGIS | VILSDGRRTFYGDSVK | PRAAGTFDS | n.d. n.d. n.d. | n.d. | 0 of 9 |
| 43 | GFTLNSYGIS | VIYSDGRRTFYGDSVR | HRAAGTFWS | 2.38 2.40 2.23 | 2.34 | 0 of 9 |
| 44 | GFGLNSYGIE | VIYSDGRRTLYGDSVK | GRAAGTFDS | 5.23 n.d. n.d. | 5.23 | 1 of 9 (3.12) |
| 45 | GFTLPFYGIS | VIYSDGRRTFTGDSVK | GRAAGTFDS | 2.72 n.d. n.d. | 2.72 | 0 of 9 |
| 46 | KFTLNEYGIS | VIYSDGRRTFYGDSVK | SRAAGTFDS | n.d. n.d. n.d. | n.d. | 0 of 9 |
| 47 | GFTLFSYGIS | VIDSDGRRTFYGDSVK | GRAAGTFDN | n.d. n.d. n.d. | n.d. | 1 of 9 (3.85) |

For reference, 6 entries of the list once more:

| CDR-H1 | CDR-H2 | CDR-H3 | log10 Kd, replicates | log10 Kd (nM), mean | signal with controls |
|---|---|---|---|---|---|
| GFTLFSYGIS | VIDSDGRRTFYGDSVK | GRAAGTFDN | n.d. n.d. n.d. | n.d. | 1 of 9 (3.85) |
| GFTLNSYGIS | VDYSDGRRLFYGDSVK | GRAAGTFDF | 2.84 2.38 2.97 | 2.73 | 1 of 9 (4.93) |
| GFTLFSYGIS | VIYSDGRRTFYGDSVK | IRAAPTFDS | n.d. n.d. n.d. | n.d. | 1 of 9 (3.20) |
| GFTLNSYGIS | VIYSDGRPTNYGDSVK | GRAAQTFDS | 4.58 n.d. n.d. | 4.58 | 0 of 9 |
| AFTLNSYGIS | VIYSDGRRTFYLDSVK | GRAAGTFVS | 1.31 1.89 1.69 | 1.63 | 2 of 9 (3.79) |
| CFTLNSYGIS | VIYSDGRRTAYGFSVK | GRAAGTFDS | 4.41 5.63 n.d. | 5.02 | 4 of 9 (4.53) |

Reference: Engelhart et al. 2022, doi:10.1038/s41597-022-01779-4. File: FLAb, binding data.